Legend:
[1] = test system: Alpha-1A adrenergic receptor (Oryctolagus cuniculus); assay: Antagonist inhibition of noradrenaline-stimulated contractions of rabbit bladderneck (RBN) for Alpha-1A adrenergic receptor
[2] = target: Alpha-1D adrenergic receptor (Rattus norvegicus) (UniProt P23944); assay: Antagonist inhibition noradrenaline-stimulated contractions of rat aortic strings for Alpha-1D adrenergic receptor; type: functional
[3] = target: Alpha adrenergic receptor (1a and 1d) (Homo sapiens) (UniProt P35348+P25100); assay: Ratio of binding affinities for human cloned alpha1D- adrenoceptor to that of human cloned alpha1A- adrenoceptor (alpha-1D/alpha-1A); type: protein assay
Method in brief: (§1)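 Ratio of α1B (or α1D) to α1A binding affinity, calculated from pKi values for [3H]-prazosin displacement at cloned human subtypes expressed in CHO-K1 membranes or whole cells.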

Sequences of proteins named here, by UniProt entry; tags and fusion partners are left off.
UniProt P23944, whole entry: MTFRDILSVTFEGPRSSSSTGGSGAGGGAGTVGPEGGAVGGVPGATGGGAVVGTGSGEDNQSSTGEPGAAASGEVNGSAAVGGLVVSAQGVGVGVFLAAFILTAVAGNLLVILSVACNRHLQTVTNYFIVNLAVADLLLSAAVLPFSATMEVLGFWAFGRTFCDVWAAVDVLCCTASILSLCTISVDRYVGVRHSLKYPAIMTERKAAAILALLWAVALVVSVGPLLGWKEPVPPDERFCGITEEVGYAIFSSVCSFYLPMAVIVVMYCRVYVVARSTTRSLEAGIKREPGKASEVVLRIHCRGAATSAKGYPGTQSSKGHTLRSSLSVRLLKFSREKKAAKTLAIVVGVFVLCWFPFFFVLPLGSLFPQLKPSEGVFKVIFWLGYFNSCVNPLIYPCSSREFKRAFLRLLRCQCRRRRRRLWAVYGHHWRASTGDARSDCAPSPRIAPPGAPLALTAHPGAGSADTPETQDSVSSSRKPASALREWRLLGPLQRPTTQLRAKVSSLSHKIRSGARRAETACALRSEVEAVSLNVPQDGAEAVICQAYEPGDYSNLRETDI
UniProt P25100, whole entry, looked up: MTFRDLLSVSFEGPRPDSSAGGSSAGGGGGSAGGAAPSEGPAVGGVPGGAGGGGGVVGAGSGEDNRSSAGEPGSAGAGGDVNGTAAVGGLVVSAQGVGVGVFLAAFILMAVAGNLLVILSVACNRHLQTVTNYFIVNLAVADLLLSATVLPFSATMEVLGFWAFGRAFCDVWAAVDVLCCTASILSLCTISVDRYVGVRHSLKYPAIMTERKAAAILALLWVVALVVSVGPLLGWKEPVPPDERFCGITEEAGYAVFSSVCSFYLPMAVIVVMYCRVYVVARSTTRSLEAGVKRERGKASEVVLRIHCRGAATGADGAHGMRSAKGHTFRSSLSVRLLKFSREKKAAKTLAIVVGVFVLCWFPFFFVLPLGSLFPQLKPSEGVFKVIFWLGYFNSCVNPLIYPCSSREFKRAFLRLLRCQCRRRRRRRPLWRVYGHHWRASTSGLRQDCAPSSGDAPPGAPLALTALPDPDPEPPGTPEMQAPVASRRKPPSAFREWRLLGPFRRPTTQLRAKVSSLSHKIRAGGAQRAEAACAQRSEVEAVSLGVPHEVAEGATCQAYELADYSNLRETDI

[4] = test system: Alpha-1D/alpha-1A adrenergic receptors (rat/rabbit); assay: Ratio of antagonistic activities against alpha-1D vs alpha-1A determined in rat aorta and rabbit bladder neck respectively
Canis familiaris = organism: Canis familiaris; assay: In vitro relative rate of metabolism was determined in dog liver microsomes; type: ADME, Canis lupus familiaris
[5] = target: T1, Alpha-1A adrenergic receptor (Homo sapiens, UniProt P35348); assay: Inhibition of [3H]prazosin binding to CHO-K1 whole cells expressing human cloned Alpha-1A adrenergic receptor; type: cell-based
T1 sequence (P35348 whole entry): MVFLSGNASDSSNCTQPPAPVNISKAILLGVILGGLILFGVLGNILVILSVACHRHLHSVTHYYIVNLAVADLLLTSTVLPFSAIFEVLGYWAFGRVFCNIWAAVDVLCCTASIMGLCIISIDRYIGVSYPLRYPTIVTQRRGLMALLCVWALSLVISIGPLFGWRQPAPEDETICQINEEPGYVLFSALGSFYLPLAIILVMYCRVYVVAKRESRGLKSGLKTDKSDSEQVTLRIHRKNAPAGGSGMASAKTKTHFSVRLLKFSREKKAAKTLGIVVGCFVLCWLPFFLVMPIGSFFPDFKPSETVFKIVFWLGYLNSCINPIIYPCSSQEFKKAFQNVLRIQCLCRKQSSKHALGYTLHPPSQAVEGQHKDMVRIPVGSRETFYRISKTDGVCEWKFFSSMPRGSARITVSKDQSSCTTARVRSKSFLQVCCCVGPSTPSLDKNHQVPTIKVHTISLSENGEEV

[6] = target: Adrenergic receptors; alpha-1 A & B (Homo sapiens) (UniProt P35348+P35368); assay: Ratio of binding affinities for human cloned alpha1B- adrenoceptor to that of human cloned alpha1A- adrenoceptor (alpha-1B/alpha-1A); type: protein assay
Method in brief: as §1

| SMILES | pA2/pKB [1] | pA2/pKB [2] | Ratio [3] | Ratio [4] | Relative rate metabolism (Canis familiaris) | Ki [5] [nM] | Ratio [6] |
| --- | --- | --- | --- | --- | --- | --- | --- |
| Cc1c[nH]c(=O)n(CC(C)(C)CN2CCN(c3ccccc3OCC(F)(F)F)CC2)c1=O | 7.8 | 6.3 | 32 | 32 |  |  | 100 |
| Cc1cn(CCCN2CCN(c3ccccc3OCC(F)(F)F)CC2)c(=O)[nH]c1=O | 8.5 | 7.1 | 10 | 25 |  |  | 50 |
| Cc1n[nH]c(=O)n(CCCN2CCN(c3ccccc3OCC(F)(F)F)CC2)c1=O | 8.7 | 7.7 | 25 | 10 |  |  | 126 |
| Cc1cc(=O)n(CCCN2CCN(c3ccc(F)cc3OCC(F)(F)F)CC2)c(=O)[nH]1 | 8.7 | 7.3 | 50 | 50 |  |  | 158 |

More lines, now with the values ahead:

| pA2/pKB [1] | pA2/pKB [2] | Ratio [3] | Ratio [4] | Relative rate metabolism (Canis familiaris) | Ki [5] [nM] | Ratio [6] | SMILES |
| --- | --- | --- | --- | --- | --- | --- | --- |
| 8.9 | 6.8 | 50 | 126 | 0.6 | 1.26 | 63 | Cc1c[nH]c(=O)n(CCCN2CCN(c3ccc(F)cc3OCC(F)(F)F)CC2)c1=O |
| 8.8 | 6.8 | 20 | 100 | 0.2 | 1.58 | 100 | COc1c[nH]c(=O)n(CCCN2CCN(c3ccc(F)cc3OCC(F)(F)F)CC2)c1=O |
| 8.2 | 6.4 | 16 | 63 | 0.4 | 6.31 | 32 | CN(C)c1c[nH]c(=O)n(CCCN2CCN(c3ccc(F)cc3OCC(F)(F)F)CC2)c1=O |
| 8.5 | 8 | 5 | 2.9 |  |  | 32 | Cc1c[nH]c(=O)n(CCN2CCN(c3ccc(F)cc3OCC(F)(F)F)CC2)c1=O |
